This is a selection; strong and weak results do not stand in their true shares. Calls of active or inactive are those of the source. No stated cut-off is given here; in the data, active means inhibition above about 50%; inactive means the rest.

The assay in a line: blockers of TWEAK-induced Fn14 reporter activity – luciferase reporter cells, uHTS, primary screen (AID 1159606). Particulars: TWEAK-stimulated Fn14 reporter cells, luciferase luminescence, 8 h; at 10 µM; stronger effect = higher value.
As a reminder, the inhibition is the change of the read-out against control, counted positive when it falls. Take `Nc1cc(N)c2nonc2c1[N+](=O)[O-]`: the inhibition is inactive: 11.2%.
With `Oc1ccccc1CNc1ccccn1`, the inhibition is inactive: -1.94%.
As for `O=C(NC(Sc1ccncn1)C(Cl)(Cl)Cl)c1ccccc1` (configuration not stated), the figure is inactive: -0.94%; as for `O=[N+]([O-])C1C(O)C(O)C([N+](=O)[O-])C(O)C1O` (configuration not stated), inactive: 10.7%; as for `NC(=O)c1cc([N+](=O)[O-])cc([N+](=O)[O-])c1N`, inactive: 7.26%.
For the compound `CN(C(=O)Cc1ccc(Cl)c(Cl)c1)[C@H]1CCCC[C@H]1N1CCCC1`, the inhibition is inactive: -5.58%.
As for `Cc1ccc(N/C(=N/P(=O)(N2CCOCC2)N2CCOCC2)N2CCOCC2)cc1`, the figure is inactive: -1.86%.
`COc1ccccc1OP(=O)(Nc1ccc(C)cn1)Oc1ccccc1OC`: the inhibition was inactive: 2.18%.
Regarding `Cc1ccc(OP(=O)(Nc2nccs2)Oc2ccc(C)cc2)cc1`, the inhibition was inactive: -6.3%.
On to `Clc1ccc(Cl)c(NC2=NCC(CBr)S2)c1` (configuration not stated), for which the inhibition was inactive: 3.13%.
Take `CN1CCCC(OC(=O)C(c2ccccc2)c2ccccc2)C1` (configuration not stated): the inhibition was inactive: 13.9%.
With `CCN(N=Nc1nonc1N)c1nonc1N`, the inhibition was inactive: -10.3%.
In the case of `Nc1cccc2ccc([As](=O)(O)O)cc12`, the inhibition was inactive: 28.4%.
For the compound `O=C(O)c1ccccc1[As](=O)(O)O`, the inhibition was inactive: 2.21%.
With `CC(=O)Nc1ccc([As](=O)(O)O)cc1`, the inhibition is inactive: -3.58%.
Turning to `CCCC1OP(N)(=O)OCC1CC` (configuration not stated), the inhibition was inactive: 7.48%.
On to `CN(C)P(=O)(N(C)C)n1c(Nc2ccccc2)nnc1-c1ccccc1`, for which the inhibition was inactive: -21.9%.
Regarding `O=P(Nc1nc2ccc(Cl)cc2s1)(c1ccccc1)c1ccccc1`, the inhibition is inactive: 8.65%.
For `CCOP(=O)(Nc1ccccc1)OCC`, the inhibition is inactive: 2.14%.
To `Cc1cc(SC(NC(=O)c2ccc(F)cc2)C(Cl)(Cl)Cl)ncn1` (configuration not stated) belongs inactive: 21.3%; to `CN(C(=O)Cc1ccc(Cl)c(Cl)c1)[C@H]1CCCC[C@@H]1N1CCCC1`, inactive: -20.4%; to `Cc1ccc(NP(=O)(Oc2ccccc2F)Oc2ccccc2F)nc1`, inactive: -2.71%.
To `CC(C)c1ccc(OP(=O)(Nc2ccccn2)Oc2ccccc2F)cc1` (configuration not stated) belongs inactive: -4.45%; to `COC(=O)C1(C)COP(=O)(N2CCCCCC2)OC1` (configuration not stated), inactive: 22.1%; to `ClCCSc1nnc(-c2cccnc2)o1`, inactive: -2.13%.
With `CCN(CC)C(=S)SC(NC=O)C(Cl)(Cl)Cl` (configuration not stated), the inhibition was inactive: 14.1%.
Consider `O=C(OC1CN2CCC1CC2)c1cccc2[nH]cnc12` (configuration not stated), for which the inhibition was inactive: 13.8%.
Consider `CC(C)NC(=O)NP(=O)(Oc1ccccc1)Oc1ccccc1`, for which the inhibition is inactive: 0.4%.
With `O=[N+]([O-])c1cc([N+](=O)[O-])c(-c2ccn[nH]2)s1`, the inhibition was inactive: 28.6%.
As to `O=[As](O)(c1ccc(O)cc1)c1ccccc1O`, the inhibition is inactive: -11.5%.
As for `C[As](=O)(O)c1cccc(C(=O)O)c1`, the figure is inactive: 14.8%; as for `COc1cc(C(=O)NCC2(N3CCOCC3)CCCCC2)ccc1OCC(C)C`, inactive: 0.54%.
To `O=[N+]([O-])c1ccc(-c2cc([N+](=O)[O-])c(O)c([N+](=O)[O-])c2)cc1` belongs inactive: 13.2%; to `Cc1ccc2nc3c(c(C)c2c1)CC(C(Cl)Cl)S3` (configuration not stated), inactive: -20.4%; to `Cc1ccc(OP(=O)(Nc2ccc([N+](=O)[O-])cn2)Oc2ccc(C)cc2)cc1`, inactive: -6.12%.
As to `[N-]=[N+]=NC1CCCCC1NC(=O)c1cc([N+](=O)[O-])cc([N+](=O)[O-])c1` (configuration not stated), the inhibition was inactive: -9.23%.
As for `COc1ccc(N/C(=N/P(=O)(N2CCOCC2)N2CCOCC2)N2CCOCC2)cc1`, the inhibition was inactive: -7.62%.
As for `O=[N+]([O-])c1cc(Oc2ccc([N+](=O)[O-])cc2C(F)(F)F)cc([N+](=O)[O-])c1`, the inhibition was inactive: 19%.
Consider `O=C(OC1CN2CCC1CC2)C12CC3CC(CC(C3)C1)C2` (configuration not stated), for which the inhibition was inactive: 5.2%.
As for `Cc1cc(=O)[nH]c(N[N+](=O)[O-])n1`, the figure is inactive: -8%; as for `Cc1c2c(nc3ccccc13)SC(C(Cl)Cl)C2` (configuration not stated), inactive: -17.9%.
For `COc1ccc2nc(NP(=O)(c3ccccc3)c3ccccc3)sc2c1`, the inhibition is inactive: 0.98%.
To `COc1cc(I)ccc1[As](=O)(O)O` belongs inactive: -12.6%; to `O=P1(N(CCCl)CCCl)OCCCN1CCCl` (configuration not stated), inactive: -9.61%.
Turning to `O=P1(N(CCCl)CCCl)Nc2ccccc2N1`, the inhibition was inactive: -3.69%.
As to `CCOC(=O)c1ccc(NC(=O)C(C)(CCl)SC)cc1` (configuration not stated), the inhibition is inactive: -14.8%.
In the case of `O=C(OC1CN2CCC1CC2)c1cccc([N+](=O)[O-])c1` (configuration not stated), the inhibition is inactive: 7.86%.
As for `CSc1ccc(Nc2c([N+](=O)[O-])cc([N+](=O)[O-])cc2[N+](=O)[O-])cc1`, the inhibition is active: 63.5%.
`CCC(C)N(CC(C)C)C(=S)SC(NC(C)=O)C(Cl)(Cl)Cl` (configuration not stated): the inhibition was inactive: -44.4%.
As to `COP1(=S)c2c(C)nn(CCC#N)c2N=C(c2ccc(F)cc2)N1C` (configuration not stated), the inhibition is inactive: 15.3%.
As to `COC(=O)C1(C)COP(=O)(N2CCCC2)OC1` (configuration not stated), the inhibition was inactive: -4.08%.
As for `O=C(COc1ccccc1)OC1CN2CCC1CC2` (configuration not stated), the figure is inactive: -23.1%; as for `O=C(Nc1ccncc1[N+](=O)[O-])c1ccc([N+](=O)[O-])cc1[N+](=O)[O-]`, inactive: 45.4%.
`O=C(O)C(=O)c1ccc(N(CCCl)CCCl)cc1`: the inhibition was inactive: -14.4%.
`CCOC(=O)Nc1cccc([As](=O)(O)O)c1`: the inhibition is inactive: 4.37%.
Consider `O=[N+]([O-])c1ccc(Nc2ccc(Oc3ccc([N+](=O)[O-])cc3[N+](=O)[O-])cc2)c([N+](=O)[O-])c1`, for which the inhibition was inactive: -15.8%.
As for `Cc1cc(SC(NC=O)C(Cl)(Cl)Cl)ncn1` (configuration not stated), the inhibition is inactive: -11.9%.
For `O=P(Nc1ccccn1)(c1cccc2ccccc12)c1cccc2ccccc12`, the inhibition is inactive: -15.1%.
Consider `CC1CCNP(=O)(N(CCCl)CCCl)O1` (configuration not stated), for which the inhibition was inactive: 5.31%.
`O=C(O)C(O)c1ccc(N(CCCl)CCCl)cc1` (configuration not stated): the inhibition is inactive: -15.7%.
For the compound `CCOC(=O)Nc1ccc([As](=O)(O)O)c(O)c1`, the inhibition is inactive: -7.42%.
Consider `CCCCOc1ccc(C(=O)NCC2(N3CCCCC3)CCCCC2)cc1OC`, for which the inhibition is inactive: -14.1%.
With `Cc1cc(SC(NC(=O)c2ccccc2)C(Cl)(Cl)Cl)nc(C(C)C)n1` (configuration not stated), the inhibition was inactive: 24.1%.
With `COP(=O)(OC)N1CC1c1ccccc1` (configuration not stated), the inhibition is inactive: 2.6%.
Turning to `O=P1(Nc2ncccn2)COc2ccccc2OC1`, the inhibition was inactive: 0.09%.
As to `Cc1ccc(S(=O)(=O)N(CCCN)CCCc2c(C)nc(N)[nH]c2=O)cc1`, the inhibition was inactive: -3.87%.
Regarding `NS(=O)(=O)c1cccc(NC(=O)COC(=O)C(O)(c2ccccc2)c2ccccc2)c1`, the inhibition was inactive: -9.44%.
As for `O=P1(Nc2ccc(Br)cn2)COc2ccccc2OC1`, the figure is inactive: -9.33%; as for `Cc1ccc(OCC(=O)OC2CN3CCC2CC3)cc1` (configuration not stated), inactive: 2.87%.
Consider `O=[As](O)(c1cccs1)c1cccs1`, for which the inhibition is inactive: 6.97%.
Regarding `Nc1cccc([As](=O)(O)c2ccccc2)c1`, the inhibition is inactive: -20%.
Take `Cc1nn(-c2ccccc2)c2c1P(=O)(N1CCOCC1)N(C)C(c1ccccc1)=N2` (configuration not stated): the inhibition is inactive: 11.7%.
As for `Cc1ccc(C(=O)OC2CN3CCC2CC3)cc1` (configuration not stated), the figure is inactive: 13.8%.
For `CC1CCC(C(C)C)C(OP(=O)(Nc2ccccn2)c2ccccc2)C1` (configuration not stated), the inhibition is inactive: 26.3%.
`O=C(/C=C/c1ccccc1)OC1CN2CCC1CC2` (configuration not stated): the inhibition is inactive: 0.65%.
To `CCCC1OP(=O)(Nc2ccccc2)OCC1CC` (configuration not stated) belongs inactive: 0.1%.
Turning to `CN(C)C1(CNC(=O)c2ccc(S(C)(=O)=O)cc2)CCCCC1`, the inhibition was inactive: -21.6%.
Regarding `COc1ccccc1CNC(=O)COC(=O)C(O)(c1ccccc1)c1ccccc1`, the inhibition is inactive: 5.77%.
Turning to `CC1(CBr)Cn2c(nc3ccccc3c2=O)S1` (configuration not stated), the inhibition was inactive: -7.51%.
As for `CN(C(=O)Cc1ccc(Cl)c(Cl)c1)[C@@H]1CCCC[C@H]1N1CCCC1`, the figure is inactive: 12.5%; as for `CC(C)/C=N\N=C(\N)N[N+](=O)[O-]`, inactive: 2.09%.
As to `CN(CCCl)Cc1cc(Cl)c(NC2=NCCN2)c(Cl)c1`, the inhibition was inactive: -6.48%.
Take `CCOP(=O)(Nc1ccc(C)cn1)OCC`: the inhibition is inactive: 6.46%.
As for `CCC1=CC2Cc3nc4ccc(Cl)cc4c(N)c3C(C1)C2` (configuration not stated), the figure is inactive: 4.89%.
With `O=P1(Nc2ccccn2)COc2ccccc2OC1`, the inhibition is inactive: -21.3%.
To `CCOP(=O)(NC(=NC(C)c1ccccc1)NC(C)c1ccccc1)OCC` (configuration not stated) belongs inactive: 26.2%.
To `Clc1n[nH]nc1-c1nn[nH][15n]1` belongs inactive: -10.3%.
As for `O=P1(N(CCCl)CCCl)NCCC(C(F)(F)F)O1` (configuration not stated), the figure is inactive: -16.7%; as for `CC(C)(C)C(=O)NC(Sc1ncccn1)C(Cl)(Cl)Cl` (configuration not stated), inactive: -14.8%.
With `CCCOP(=S)(Nc1nc(N)cc(=O)[nH]1)OCCC`, the inhibition is inactive: -11.1%.
Take `Cc1ccc(NCCc2c([N+](=O)[O-])cc([N+](=O)[O-])cc2[N+](=O)[O-])cc1`: the inhibition was inactive: 41.7%.
To `Nc1cccc2c([As](=O)(O)O)cccc12` belongs inactive: 23.9%; to `COc1cc(C2NCCC3(OCCO3)C2(C)C)cc(OC)c1OC` (configuration not stated), inactive: 29.6%.
For `CCOP(=O)(Nc1cccc2ccccc12)OCC`, the inhibition is inactive: 2.84%.
In the case of `COc1cc(C(=O)NCC2(N3CCOCC3)CCCCC2)cc(Cl)c1OC(C)C`, the inhibition is inactive: 16%.
Consider `O=[As](O)(O)c1cccnc1`, for which the inhibition is inactive: 2.62%.
As for `CS(=O)(=O)c1ccc(Cl)c(NC(=O)COC(=O)C(O)(c2ccccc2)c2ccccc2)c1`, the figure is inactive: -26.8%; as for `O=C(OC1CN2CCC1CC2)c1ccc(Cl)cc1` (configuration not stated), inactive: -1.78%; as for `O=[As](O)(c1cccc(O)c1)c1cccc(O)c1`, inactive: 24%.
Turning to `Cc1cccc(OCC(=O)OC2CN3CCC2CC3)c1` (configuration not stated), the inhibition was inactive: 10.2%.
For the compound `NC(=O)Nc1ccc([As](=O)(O)O)cc1`, the inhibition was inactive: 11.2%.
For the compound `CN(C)C(=O)c1cc([N+](=O)[O-])cc2c1-c1c(cc([N+](=O)[O-])cc1[N+](=O)[O-])C2=O`, the inhibition is active: 60.2%.
Regarding `O=[N+]([O-])c1ccc2c(c1)nnn2O`, the inhibition was inactive: 1.65%.
Consider `N#CCCN(C(=O)COC(=O)C(O)(c1ccccc1)c1ccccc1)c1ccc(F)cc1`, for which the inhibition is inactive: -5.24%.
Consider `CN(C(=O)Cc1ccccc1)[C@@H]1CC[C@]2(CCCO2)C[C@H]1N1CCCC1`, for which the inhibition is inactive: 5.84%.
To `CCOP1(=S)c2c(C)nn(CCC#N)c2N=C(c2ccc(F)cc2)N1C` (configuration not stated) belongs inactive: -21.9%; to `CS(=O)(=O)c1cc([N+](=O)[O-])c2no[n+]([O-])c2c1`, inactive: 3.73%.
Turning to `CCOP1(=S)c2c(C)nn(CCC#N)c2N=C(c2ccccc2F)N1C` (configuration not stated), the inhibition was inactive: 7.21%.
Regarding `O=P(Nc1nccs1)(c1ccccc1)c1nc2ccccc2s1` (configuration not stated), the inhibition is inactive: -7.93%.
As for `O=P(Nc1nccs1)(Oc1ccccc1)Oc1ccccc1`, the figure is inactive: -5.13%; as for `O=C(O)COc1ccc([As](=O)(O)O)cc1[N+](=O)[O-]`, inactive: -0.61%; as for `Nc1ccccc1[As](=O)(O)c1ccccc1`, inactive: 0.71%.

(Values after PubChem BioAssay AID1159606 (Sanford-Burnham Center for Chemical Genomics, 2016).)
